Binding of CDR-mutated scFvs to a peptide of the spike HR2 region

Binding partner: SARS-CoV-2 spike HR2 peptide, sequence PDVDLGDISGINAS.

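Variants in AAYL49 differ from the parent at up to three CDR positions; double and triple changes were sampled at random. AlphaSeq pools MATa yeast showing the antibodies with MATalpha yeast showing the peptide. After mating in shaken culture at 30 °C for 16 h, diploids were selected and their barcode pairs sequenced. The ratio of observed to expected reads was calibrated, replicate by replicate, on BCL2-family standards whose Kd was known from biolayer interferometry. Each pool was mated in three replicate cultures.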

Ab-14 is the parent antibody, in scFv form: VH, then three GGGGS repeats, then VL. The light chain is unchanged in all variants.
VH: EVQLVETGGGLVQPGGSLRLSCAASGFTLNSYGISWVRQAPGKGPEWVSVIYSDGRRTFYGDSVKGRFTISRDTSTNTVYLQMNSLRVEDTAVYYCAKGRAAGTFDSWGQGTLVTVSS
VL: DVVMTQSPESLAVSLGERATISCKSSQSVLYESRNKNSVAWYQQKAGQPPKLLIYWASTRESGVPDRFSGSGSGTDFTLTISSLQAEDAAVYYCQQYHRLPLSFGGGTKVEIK

The whole VH of each variant is written out.
Numbers give log10(Kd / nM), so 0 is 1 nM and 3 is 1 µM. Smaller is tighter.
"ND" marks a missing value. The strain was present, yet no cells mated with the target were sequenced in that replicate, which points to weak or no binding.
Empty control strains, which show no peptide, gave a signal in 15% of pairings with library AAYL49; the median was 4.06 and 95% of these signals were weaker than 2.83. No background was subtracted. The control count says in how many pairings with the empty strains this scFv gave a signal, with their mean in brackets.

VH	replicates, log10 nM	empty controls
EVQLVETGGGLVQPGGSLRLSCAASGFTLNSGGISWVRQAPGKGPEWVSVIYSDGRRTFYRDSVKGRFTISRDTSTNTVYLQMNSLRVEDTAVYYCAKGRAAGTFDVWGQGTLVTVSS	ND / ND / 4.89	1 of 9 (3.05)
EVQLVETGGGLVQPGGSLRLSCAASGFTLNSYGISWVRQAPGKGPEWVSVIYSDGRRTFYGDSVKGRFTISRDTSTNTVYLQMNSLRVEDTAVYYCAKGRAAGPIDPWGQGTLVTVSS	ND / 4.30 / ND	2 of 9 (4.29)
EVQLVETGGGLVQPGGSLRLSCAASGFTLNSYPISWVRQAPGKGPEWVSVIYSDGRRTFYGDSVKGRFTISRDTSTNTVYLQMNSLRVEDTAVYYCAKKRAAGTLDSWGQGTLVTVSS	3.10 / ND / ND	2 of 9 (3.64)
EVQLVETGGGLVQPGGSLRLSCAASGFTLNSYGIHWVRQAPGKGPEWVSVIYSDGRYTFYGDQVKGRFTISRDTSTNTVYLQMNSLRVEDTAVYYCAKGRAAGTFDSWGQGTLVTVSS	ND / ND / ND	0 of 9
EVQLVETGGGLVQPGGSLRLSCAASGFTLNSYGISWVRQAPGKGPEWVSVIYSDGFRTFYGDSVKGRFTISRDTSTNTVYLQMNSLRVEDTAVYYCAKGRACGTFDSWGQGTLVTVSS	ND / 2.85 / ND	1 of 9 (3.03)
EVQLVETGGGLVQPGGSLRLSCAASGETLNSYGISWVRQAPGKGPEWVSVIYSDGWRTFYGDDVKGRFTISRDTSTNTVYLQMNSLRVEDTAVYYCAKGRAAGTFDSWGQGTLVTVSS	2.30 / 1.75 / 2.22	2 of 9 (5.03)
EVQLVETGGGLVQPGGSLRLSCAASGFTLNSYGISWVRQAPGKGPEWVSVLYSDGRRTFYGDSVKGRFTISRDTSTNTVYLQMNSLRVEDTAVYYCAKGRAAGTFDSWGQGTLVTVSS	1.48 / 1.70 / 1.70	0 of 9
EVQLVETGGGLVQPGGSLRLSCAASYFTLNSYGISWVRQAPGKGPEWVSVIYPDGRRTFYGDSVKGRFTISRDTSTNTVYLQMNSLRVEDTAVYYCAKGRAAGYFDSWGQGTLVTVSS	ND / ND / ND	0 of 9
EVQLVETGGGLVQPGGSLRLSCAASGFTLNSYGISWVRQAPGKGPEWVSVIYSDNFRTFYGDSVKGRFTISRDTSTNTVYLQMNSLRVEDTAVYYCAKGRAAGWFDSWGQGTLVTVSS	ND / ND / ND	4 of 9 (4.09)
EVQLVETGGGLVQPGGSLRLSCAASGFTLKSYGIAWVRQAPGKGPEWVSVIYSDGRRTNYGDSVKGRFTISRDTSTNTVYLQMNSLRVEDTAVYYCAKGRAAGTFDSWGQGTLVTVSS	ND / 4.45 / ND	1 of 9 (4.79)
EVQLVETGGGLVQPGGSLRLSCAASGFELDSYGISWVRQAPGKGPEWVSVIYSKGRRTFYGDSVKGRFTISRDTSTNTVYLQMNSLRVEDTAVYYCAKGRAAGTFDSWGQGTLVTVSS	ND / 3.66 / 5.75	4 of 9 (3.93)
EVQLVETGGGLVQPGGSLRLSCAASGFTLYSYGISWVRQAPGKGPEWVSVIYSDGRRQFYGDSVKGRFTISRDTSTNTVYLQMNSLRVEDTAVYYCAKGPAAGTFDSWGQGTLVTVSS	ND / ND / ND	0 of 9
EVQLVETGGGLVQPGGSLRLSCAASGFTLASYLISWVRQAPGKGPEWVSVIYSDGRRTFYGDSVKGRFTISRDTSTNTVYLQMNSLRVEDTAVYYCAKGRLAGTFDSWGQGTLVTVSS	ND / ND / ND	0 of 9
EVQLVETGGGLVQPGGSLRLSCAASSFTLNSYGISWVRQAPGKGPEWVSVIYSDGRNTFYGDSRKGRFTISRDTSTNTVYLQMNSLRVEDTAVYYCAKGRAAGTFDSWGQGTLVTVSS	4.74 / ND / ND	5 of 9 (4.26)
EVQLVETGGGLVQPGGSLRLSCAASGFTLNSRGISWVRQAPGKGPEWVSVIYSFGRRTFYGDHVKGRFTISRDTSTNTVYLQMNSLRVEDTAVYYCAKGRAAGTFDSWGQGTLVTVSS	ND / 3.57 / ND	1 of 9 (3.11)
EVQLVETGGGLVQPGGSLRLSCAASGITLNSYGISWVRQAPGKGPEWVSVIYSDGRRTFWGDSNKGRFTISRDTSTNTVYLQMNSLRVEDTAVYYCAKGRAAGTFDSWGQGTLVTVSS	ND / 4.62 / ND	2 of 9 (3.65)
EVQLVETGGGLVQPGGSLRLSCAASGFTLNNYGISWVRQAPGKGPEWVSVIYSDGRRTFYGDSVKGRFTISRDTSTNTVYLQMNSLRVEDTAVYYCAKHRAAGTFDDWGQGTLVTVSS	ND / 2.19 / 2.05	0 of 9
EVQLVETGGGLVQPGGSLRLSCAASGFTLNSYGESWVRQAPGKGPEWVSVIYVDGRRTFYGDSVKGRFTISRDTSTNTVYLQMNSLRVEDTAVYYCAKGRAAGTFTSWGQGTLVTVSS	ND / ND / 4.67	0 of 9
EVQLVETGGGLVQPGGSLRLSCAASGYTLNSYGISWVRQAPGKGPEWVSVIYSDGRRTFYGISVKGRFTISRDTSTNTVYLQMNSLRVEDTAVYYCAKGRAAWTFDSWGQGTLVTVSS	ND / ND / 4.82	1 of 9 (4.47)
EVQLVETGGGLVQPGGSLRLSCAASGFTLNSYSIVWVRQAPGKGPEWVSVIYSDGRRTFYGDSVKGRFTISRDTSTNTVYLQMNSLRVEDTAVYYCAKGTAAGTFDSWGQGTLVTVSS	ND / ND / ND	1 of 9 (4.60)
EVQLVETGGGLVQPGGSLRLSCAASGFTLNSYNISWVRQAPGKGPEWVSVIYSDGRRTFYGWSYKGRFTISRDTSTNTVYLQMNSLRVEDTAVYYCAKGRAAGTFDSWGQGTLVTVSS	5.02 / 4.26 / 6.07	6 of 9 (5.34)
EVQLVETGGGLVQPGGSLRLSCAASGFTLNSYGICWVRQAPGKGPEWVSVIYADGQRTFYGDSVKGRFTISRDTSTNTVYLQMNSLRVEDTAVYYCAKGRAAGTFDSWGQGTLVTVSS	ND / ND / ND	1 of 9 (3.78)
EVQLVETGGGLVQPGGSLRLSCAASGFTLNSYGISWVRQAPGKGPEWVSVIYSKGRRTFYGDSVKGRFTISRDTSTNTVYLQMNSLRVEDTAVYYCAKGSAAGMFDSWGQGTLVTVSS	ND / ND / ND	0 of 9
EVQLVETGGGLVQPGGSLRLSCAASGFFLNIYGILWVRQAPGKGPEWVSVIYSDGRRTFYGDSVKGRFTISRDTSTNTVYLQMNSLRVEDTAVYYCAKGRAAGTFDSWGQGTLVTVSS	ND / ND / ND	3 of 9 (4.70)
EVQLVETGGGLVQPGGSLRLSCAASGFTLNSYMISWVRQAPGKGPEWVSVIYSDGRRCFYGDSVKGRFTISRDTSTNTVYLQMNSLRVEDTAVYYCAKGRAAGTFDIWGQGTLVTVSS	ND / ND / ND	0 of 9

The last 4 entries again:

VH	replicates, log10 nM	empty controls
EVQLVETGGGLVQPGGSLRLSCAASGFTLNSYGICWVRQAPGKGPEWVSVIYADGQRTFYGDSVKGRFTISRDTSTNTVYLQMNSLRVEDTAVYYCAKGRAAGTFDSWGQGTLVTVSS	ND / ND / ND	1 of 9 (3.78)
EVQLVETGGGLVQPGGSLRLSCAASGFTLNSYGISWVRQAPGKGPEWVSVIYSKGRRTFYGDSVKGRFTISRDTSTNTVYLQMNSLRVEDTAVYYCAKGSAAGMFDSWGQGTLVTVSS	ND / ND / ND	0 of 9
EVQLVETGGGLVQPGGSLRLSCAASGFFLNIYGILWVRQAPGKGPEWVSVIYSDGRRTFYGDSVKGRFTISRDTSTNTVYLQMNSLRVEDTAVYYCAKGRAAGTFDSWGQGTLVTVSS	ND / ND / ND	3 of 9 (4.70)
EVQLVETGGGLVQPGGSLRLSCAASGFTLNSYMISWVRQAPGKGPEWVSVIYSDGRRCFYGDSVKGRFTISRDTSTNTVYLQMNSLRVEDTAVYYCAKGRAAGTFDIWGQGTLVTVSS	ND / ND / ND	0 of 9

The measurements come from Engelhart et al. 2022 (doi:10.1038/s41597-022-01779-4) through the FLAb antibody collection.